We go through one molecule from patent US20190292189A1, “LIM KINASE INHIBITORS” (VIRONGY, LLC, priority 2016, published 2019).

Chains of the proteins cited; added tags and fusions are not shown. Residues count along the entry.
UniProt O75116, whole entry: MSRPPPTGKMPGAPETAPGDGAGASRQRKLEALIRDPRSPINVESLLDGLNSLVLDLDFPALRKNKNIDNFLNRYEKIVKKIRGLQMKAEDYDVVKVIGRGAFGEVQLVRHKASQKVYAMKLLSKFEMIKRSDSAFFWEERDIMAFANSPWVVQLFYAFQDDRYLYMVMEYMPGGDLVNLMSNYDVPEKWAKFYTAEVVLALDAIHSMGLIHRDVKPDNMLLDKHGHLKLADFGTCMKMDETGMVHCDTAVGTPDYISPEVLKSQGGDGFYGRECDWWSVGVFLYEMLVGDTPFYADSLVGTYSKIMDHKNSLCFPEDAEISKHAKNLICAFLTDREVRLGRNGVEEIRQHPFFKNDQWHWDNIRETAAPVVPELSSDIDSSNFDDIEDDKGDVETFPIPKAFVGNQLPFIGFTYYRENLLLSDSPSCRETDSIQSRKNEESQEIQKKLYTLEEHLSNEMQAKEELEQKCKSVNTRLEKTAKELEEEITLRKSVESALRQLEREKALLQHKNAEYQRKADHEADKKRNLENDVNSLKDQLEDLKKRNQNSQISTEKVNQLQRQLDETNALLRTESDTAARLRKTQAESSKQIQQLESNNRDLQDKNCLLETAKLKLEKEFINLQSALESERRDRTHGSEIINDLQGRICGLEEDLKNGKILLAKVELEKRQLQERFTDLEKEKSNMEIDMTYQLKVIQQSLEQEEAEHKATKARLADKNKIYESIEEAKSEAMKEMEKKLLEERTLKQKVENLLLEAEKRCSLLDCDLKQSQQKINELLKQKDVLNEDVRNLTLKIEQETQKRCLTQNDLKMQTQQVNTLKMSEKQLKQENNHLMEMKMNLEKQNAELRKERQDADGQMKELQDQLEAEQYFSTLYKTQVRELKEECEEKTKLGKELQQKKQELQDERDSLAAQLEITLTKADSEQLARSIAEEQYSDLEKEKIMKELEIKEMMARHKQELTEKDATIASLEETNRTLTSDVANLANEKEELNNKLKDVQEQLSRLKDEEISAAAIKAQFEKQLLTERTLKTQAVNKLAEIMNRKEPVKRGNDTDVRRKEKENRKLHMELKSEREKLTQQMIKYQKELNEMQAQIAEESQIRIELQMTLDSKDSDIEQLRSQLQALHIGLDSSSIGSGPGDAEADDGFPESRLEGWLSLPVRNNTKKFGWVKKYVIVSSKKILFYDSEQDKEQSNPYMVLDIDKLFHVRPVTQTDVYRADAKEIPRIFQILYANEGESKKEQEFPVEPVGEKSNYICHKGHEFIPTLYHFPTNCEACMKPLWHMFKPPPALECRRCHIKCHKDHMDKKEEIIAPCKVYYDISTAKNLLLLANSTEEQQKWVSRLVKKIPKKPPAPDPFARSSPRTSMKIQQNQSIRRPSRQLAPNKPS
UniProt P53667, 285-638 limits assumed: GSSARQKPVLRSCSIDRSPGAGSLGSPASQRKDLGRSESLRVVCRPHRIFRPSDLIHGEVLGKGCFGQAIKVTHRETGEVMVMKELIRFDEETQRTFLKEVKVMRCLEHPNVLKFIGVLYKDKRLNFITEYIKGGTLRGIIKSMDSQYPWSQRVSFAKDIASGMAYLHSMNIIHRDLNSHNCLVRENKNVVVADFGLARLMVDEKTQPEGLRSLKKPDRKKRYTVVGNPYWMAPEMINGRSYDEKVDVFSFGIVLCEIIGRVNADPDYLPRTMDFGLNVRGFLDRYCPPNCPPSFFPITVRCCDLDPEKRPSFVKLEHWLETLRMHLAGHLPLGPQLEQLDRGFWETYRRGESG

One assay deals with ROCK-II (Homo sapiens, UniProt O75116). Nature of the assay: ROCK-II biochemical counter-screen. The following applies: read-out: ROCK-II IC50. For orientation: A counterscreen serves to expose hits that act by an unwanted route or on another target.
The target of a further assay is Limk1 (Homo sapiens, UniProt P53667). The following applies: read-out: Limk1 IC50.

One may read the IC50 as the point on the concentration scale where inhibition reaches its midpoint. Turning to `COc1cccc(CNC(=O)Nc2ccc(-c3cn[nH]c3)cc2)c1`, the values for the IC50 at ROCK-II and at Limk1 were 2 nM and > 10000 nM, respectively.
